According to patent publication US10781262B2, “Combination therapy of T cell activating bispecific antigen binding molecules and PD-1 axis binding antagonists” (Hoffmann-La Roche Inc., priority 2014, dated 2020):

Tested on: TIM-3 pathway, human lymphocytes
Experiment: Mixed lymphocyte reaction (MLR), IFN-gamma release
Assay type: cell-based
Settings: IL-2 20 U/ml
Method: T cells in the assay were tested for activation and theier IFN-gamma secretion in the presence or absence of an anti-TIM-3 mAbs. Human Lymphocytes were isolated from peripheral blood of healthy donor by density gradient centrifugation using Leukosep (Greiner Bio One, 227 288). Briefly, heparinized blood were diluted with the three fold volume of PBS and 25 ml aliquots of the diluted blood were layered in 50 ml Leukosep tubes. After centrifugation at 800×g for 15 min at room temperature (w/o break) the lymphocyte containing fractions were harvested, washed in PBS and used directly in functional assay or resuspended in freezing medium (10% DMSO, 90% FCS) at 1.0E+07 cells/ml and stored in liquid nitrogen. […] The levels of IFN-gamma were measured using OptEIA ELISA kit (BD Biosciences).

Substance: MLR + IL-2: rec hu IL-2 (20 EU/ml) used as positive control [reference compound]
- IFNgamma release of positive control (=100%): 100%
